Molecular target: biotinylated truncated STAT6 (123-632)-avi (Homo sapiens, UniProt P42226)
Assay: Homogenous Time-Resolved Fluorescence (HTRF) binding assay
Settings: read-out: STAT6 HTRF: Average IC50; 0.15 nM biotinylated truncated STAT6 (123-632)-avi, 20 nM fluorescein-labeled probe, 30 minutes room temperature
Description: Example 1. Homogenous Time-Resolved Fluorescence (HTRF) Binding Assay
HTRF binding assays were performed using 0.15 nM biotinylated truncated STAT6 (123-632)-avi purified from E. coli, 1× Streptavidin-terbium (CisBio) prepared by mixing SA-Tb in PPI detection buffer (CisBio), 20 nM proprietary fluorescein-labeled probe, and test compounds in assay buffer consisting of 50 mM HEPES-Na pH 7.5, 100 mM NaCl, 1 mM EDTA, 2 mM DTT, 0.1% Tween-20 with a final volume of 20 uL. Compound stocks were dissolved at 10 mM in 100% DMSO and 11 point titration with 3 fold serial dilution was performed in white, opaque 384 well microplates. Reaction plates were incubated at room temperature for 30 minutes. Plates were centrifuged at low rpm for 5 mins, and the ratio of fluorescence intensities were measured at emission wavelengths for fluorescein acceptor (520 nm) and terbium donor (495 nm) on Envision Plate reader. % Inhibition was calculated from the 520/495 ratio generated by using proprietary positive control compound for 100% inhibition and DMSO only reactions for 0% inhibition. Data was processed and dose response curves were generated using GraphPad Prism to determine the concentration required for inhibiting 50% of the HTRF signal (IC50).

Chains of the proteins cited; added tags and fusions are not shown. Residues count along the entry.
UniProt P42226, 123-632 limits assumed: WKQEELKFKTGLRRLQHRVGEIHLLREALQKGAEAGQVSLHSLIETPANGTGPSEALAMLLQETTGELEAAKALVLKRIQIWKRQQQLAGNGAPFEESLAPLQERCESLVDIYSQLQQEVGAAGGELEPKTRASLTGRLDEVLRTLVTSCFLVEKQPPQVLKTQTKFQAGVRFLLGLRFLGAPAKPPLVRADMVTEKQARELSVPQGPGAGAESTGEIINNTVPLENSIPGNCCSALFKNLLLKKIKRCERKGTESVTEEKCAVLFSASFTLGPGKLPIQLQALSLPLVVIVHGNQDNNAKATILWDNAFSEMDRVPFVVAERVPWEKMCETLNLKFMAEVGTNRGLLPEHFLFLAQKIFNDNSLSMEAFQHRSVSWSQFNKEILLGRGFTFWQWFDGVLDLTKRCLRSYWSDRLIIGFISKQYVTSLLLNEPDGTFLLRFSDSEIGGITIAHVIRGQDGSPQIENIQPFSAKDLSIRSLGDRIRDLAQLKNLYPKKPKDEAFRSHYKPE

Compound | IC50
CCc1nc(C)ccc1-c1cc(C(=O)N2Cc3cnn(C)c3C2)cc2c(F)c(C3CCCN(C(=O)CCc4nccs4)C3)n(CC3CC3)c12 (single isomer, unassigned) | 1 to 10 µM
CCc1nc(C)ccc1-c1cc(C(=O)N2CCN(C3CC3)CC2)cc2c(F)c(C3CCCN(C(=O)CCn4ccnn4)C3)n(CC3CC3)c12 (single isomer, unassigned) | 1 to 10 µM
